{"source": "patent US20230000797A1", "about": "“COMPOSITIONS AND METHODS FOR TREATING MOTOR DISORDERS” (ARIZONA BOARD OF REGENTS ON BEHALF OF THE UNIVERSITY OF …, priority 2015, published 2023)", "test_system": "unilaterally 6-OHDA-lesioned LID rats", "experiment": "L-DOPA-induced AIMs in the preclinical rat LID model (10 hr ketamine 'infusion' paradigm or acute injection)", "conditions": "cohort #1 severe LID; 5 mg/kg ketamine-'infusion' (5 x i.p. two hrs apart); 7 mg/kg L-DOPA"}
{"smiles": "CNC1(c2ccccc2Cl)CCCCC1=O", "note": "(racemic) [ketamine, (RS)-2-(2-Chlorophenyl)-2-(methylamino)cyclohexanone]", "values": [{"measurement": "reduction of the AIMs score lasted (post-injection, before baseline reached again)", "value": 7, "unit": "days"}]}
